Antibody variant affinities, Ab-95 light chain, assay 2

Values reported by Engelhart et al. 2022, doi:10.1038/s41597-022-01779-4 (FLAb copy).

Antigen: PDVDLGDISGINAS, a 14-residue peptide of the SARS-CoV-2 spike HR2 region.

Ab-95 is the parent antibody, in scFv form: VH, then three GGGGS repeats, then VL. The heavy chain is unchanged in all variants.
VH: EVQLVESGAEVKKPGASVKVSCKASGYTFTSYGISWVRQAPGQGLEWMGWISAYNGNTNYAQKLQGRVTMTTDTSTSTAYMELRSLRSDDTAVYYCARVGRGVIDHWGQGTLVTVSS
VL: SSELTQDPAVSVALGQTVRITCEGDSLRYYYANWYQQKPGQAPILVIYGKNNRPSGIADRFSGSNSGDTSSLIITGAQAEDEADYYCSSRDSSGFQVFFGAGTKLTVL

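Phage display of a naive human antibody library on the peptide gave the parent. Variants in AAYL52 differ from the parent at up to three CDR positions; double and triple changes were sampled at random. The assay is AlphaSeq: two haploid yeast populations carry antibody and antigen on their surface. Pairs that bind mate more often; barcode pairs of the diploids are counted by sequencing. The ratio of observed to expected reads was calibrated, replicate by replicate, on BCL2-family standards whose Kd was known from biolayer interferometry. Mating was done three times.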

Substitutions are numbered in sequence along the VL above, starting at 1 (not Kabat). Numbers give log10(Kd / nM), so 0 is 1 nM and 3 is 1 µM. Smaller is tighter. A mean of the replicates is given; it leaves out those without a signal. "ND" means that the variant was in the library but no mating with the target was seen in that replicate; the authors take this as a sign of poor binding, and no number exists.

{"changes": "G24L/G49R/P54T", "log10 Kd (nM) by replicate": "ND / ND / ND", "mean log10 Kd (nM)": "ND", "control signals": "5 of 9 (3.72)"}
{"changes": "Y31W/P54M/Q96W", "log10 Kd (nM) by replicate": "3.90 / 3.72 / 3.02", "mean log10 Kd (nM)": "3.55", "control signals": "7 of 9 (4.50)"}
{"changes": "R28Q/Y29Q/D91M", "log10 Kd (nM) by replicate": "ND / 4.16 / ND", "mean log10 Kd (nM)": "4.16", "control signals": "0 of 9"}
{"changes": "D91Y/G94K/V97Y", "log10 Kd (nM) by replicate": "2.16 / 2.57 / 1.67", "mean log10 Kd (nM)": "2.13", "control signals": "2 of 9 (4.13)"}
{"changes": "D25A/P54A/S55V", "log10 Kd (nM) by replicate": "2.00 / 2.17 / 1.76", "mean log10 Kd (nM)": "1.98", "control signals": "5 of 9 (3.91)"}
{"changes": "G49T/P54M/D91P", "log10 Kd (nM) by replicate": "5.26 / ND / 3.54", "mean log10 Kd (nM)": "4.40", "control signals": "0 of 9"}
{"changes": "Y31S/K50S/R53N", "log10 Kd (nM) by replicate": "1.90 / 1.75 / 1.43", "mean log10 Kd (nM)": "1.69", "control signals": "3 of 9 (3.54)"}
{"changes": "L27Y/Y29A/F95Q", "log10 Kd (nM) by replicate": "3.65 / 2.69 / ND", "mean log10 Kd (nM)": "3.17", "control signals": "3 of 9 (4.04)"}
{"changes": "G49F/S88G/S89W", "log10 Kd (nM) by replicate": "3.91 / 5.41 / ND", "mean log10 Kd (nM)": "4.66", "control signals": "1 of 9 (3.58)"}
{"changes": "R90N/S92T", "log10 Kd (nM) by replicate": "3.05 / 3.59 / 5.04", "mean log10 Kd (nM)": "3.90", "control signals": "2 of 9 (4.73)"}
{"changes": "E23R/S26K/Y29V", "log10 Kd (nM) by replicate": "4.99 / 4.17 / ND", "mean log10 Kd (nM)": "4.58", "control signals": "6 of 9 (3.59)"}
{"changes": "L27D/Y31Q/S93M", "log10 Kd (nM) by replicate": "4.49 / ND / ND", "mean log10 Kd (nM)": "4.49", "control signals": "3 of 9 (3.90)"}
{"changes": "G24A/D25N/G49D", "log10 Kd (nM) by replicate": "3.01 / 3.20 / 3.27", "mean log10 Kd (nM)": "3.16", "control signals": "3 of 9 (3.64)"}
{"changes": "K50I/N51F/D91E", "log10 Kd (nM) by replicate": "ND / ND / ND", "mean log10 Kd (nM)": "ND", "control signals": "2 of 9 (4.34)"}
{"changes": "R28H/A32M/G94R", "log10 Kd (nM) by replicate": "4.41 / ND / 3.58", "mean log10 Kd (nM)": "4.00", "control signals": "6 of 9 (4.51)"}
{"changes": "Y29A/F95K/V97D", "log10 Kd (nM) by replicate": "2.98 / 2.26 / 2.31", "mean log10 Kd (nM)": "2.52", "control signals": "2 of 9 (3.28)"}
{"changes": "Y30M/S88C/F98A", "log10 Kd (nM) by replicate": "3.06 / 2.69 / 2.44", "mean log10 Kd (nM)": "2.73", "control signals": "0 of 9"}
{"changes": "S26R/Y30D/G94I", "log10 Kd (nM) by replicate": "3.26 / 2.86 / ND", "mean log10 Kd (nM)": "3.06", "control signals": "0 of 9"}
{"changes": "R28W/Y31P/S93M", "log10 Kd (nM) by replicate": "2.19 / 3.15 / 2.64", "mean log10 Kd (nM)": "2.66", "control signals": "1 of 9 (5.31)"}
{"changes": "Y29D/Y30Q", "log10 Kd (nM) by replicate": "0.19 / 0.20 / -0.52", "mean log10 Kd (nM)": "-0.04", "control signals": "4 of 9 (4.41)"}
{"changes": "G24I/D25R/S26E", "log10 Kd (nM) by replicate": "3.84 / ND / 3.76", "mean log10 Kd (nM)": "3.80", "control signals": "2 of 9 (3.19)"}
{"changes": "Y29C/N33A/P54F", "log10 Kd (nM) by replicate": "3.11 / 3.49 / ND", "mean log10 Kd (nM)": "3.30", "control signals": "4 of 9 (3.90)"}
{"changes": "D91S/G94R", "log10 Kd (nM) by replicate": "4.30 / ND / ND", "mean log10 Kd (nM)": "4.30", "control signals": "5 of 9 (4.41)"}
{"changes": "G24E/N33A/R53A", "log10 Kd (nM) by replicate": "ND / 4.15 / 3.54", "mean log10 Kd (nM)": "3.85", "control signals": "2 of 9 (3.19)"}
{"changes": "G49R/N52E/F95K", "log10 Kd (nM) by replicate": "ND / ND / ND", "mean log10 Kd (nM)": "ND", "control signals": "1 of 9 (4.12)"}
{"changes": "K50C/S55C/F98G", "log10 Kd (nM) by replicate": "4.30 / 5.58 / 4.42", "mean log10 Kd (nM)": "4.77", "control signals": "5 of 9 (3.73)"}
{"changes": "L27E/Y29I/D91W", "log10 Kd (nM) by replicate": "5.20 / ND / ND", "mean log10 Kd (nM)": "5.20", "control signals": "2 of 9 (3.63)"}
{"changes": "S26A/Y29A/V97Q", "log10 Kd (nM) by replicate": "2.08 / 3.37 / 2.22", "mean log10 Kd (nM)": "2.56", "control signals": "1 of 9 (4.05)"}
{"changes": "Y30D/N33A/G94P", "log10 Kd (nM) by replicate": "ND / 4.07 / ND", "mean log10 Kd (nM)": "4.07", "control signals": "2 of 9 (3.83)"}
{"changes": "G24M/S55F/S89K", "log10 Kd (nM) by replicate": "5.94 / 5.25 / ND", "mean log10 Kd (nM)": "5.59", "control signals": "3 of 9 (4.34)"}

The first 4 entries again:

{"changes": "G24L/G49R/P54T", "log10 Kd (nM) by replicate": "ND / ND / ND", "mean log10 Kd (nM)": "ND", "control signals": "5 of 9 (3.72)"}
{"changes": "Y31W/P54M/Q96W", "log10 Kd (nM) by replicate": "3.90 / 3.72 / 3.02", "mean log10 Kd (nM)": "3.55", "control signals": "7 of 9 (4.50)"}
{"changes": "R28Q/Y29Q/D91M", "log10 Kd (nM) by replicate": "ND / 4.16 / ND", "mean log10 Kd (nM)": "4.16", "control signals": "0 of 9"}
{"changes": "D91Y/G94K/V97Y", "log10 Kd (nM) by replicate": "2.16 / 2.57 / 1.67", "mean log10 Kd (nM)": "2.13", "control signals": "2 of 9 (4.13)"}

As a blank, each scFv also met three strains without target: over library AAYL52, 28% of these pairings were detected, typically at 3.91 and seldom below 2.90. For each scFv, signals with the empty controls are counted beside the result, with their mean in brackets. In this assay the parent's reference entry averaged 2.31; its copy inside this library read 2.25.